Test results taken from patent US7262192B2, “Substituted pyrazolo[4,3-d]pyrimidines and their use as PDE-5 inhibitors” (Pfizer Inc., priority 2003, dated 2007).

Molecular target: cGMP-specific PDE-5 (UniProt O76074)
Experiment: PDE-5 inhibition, batch method or scintillation proximity assay
Assay type: biochemical, human
Conditions: activity against PDE-5; representative preferred compounds
Source text: The compounds of the invention are inhibitors of cyclic guanylate monophosphate (cGMP)-specific phosphodiesterase type 5 (PDE-5 inhibitors).
The required PDE enzymes can be isolated from a variety of sources, including human corpus cavernosum, human and rabbit platelets, human cardiac ventricle, human skeletal muscle and bovine retina, essentially by a modification of the method of Thompson, W J et al.; Biochemistry 18(23), 5228-5237, 1979, as described by Ballard S A et al.; J. Urology 159(6), 2164-2171, 1998. In particular, cGMP-specific PDE-5 and cGMP-inhibited cAMP PDE-3 can be obtained from human corpus cavernosum tissue, human platelets or rabbit platelets; cGMP-stimulated PDE-2 was obtained from human corpus cavernosum; calcium/calmodulin (Ca/CAM)-dependent PDE-1 from human cardiac ventricle; cAMP-specific PDE-4 from human skeletal muscle; and photoreceptor PDE-6 from bovine retina. Phosphodiesterases 7-11 can be generated from full length human recombinant clones transfected into SF9 cells. […]

Row | SMILES | IC50
1 | CCOCCn1nc(COC)c2nc(N3CCN[C@H](C)C3)nc(Nc3cc(C)ccn3)c21 [Example 184, N-[1-(2-Ethoxyethyl)-3-methoxymethyl-5-((3R)-(3-methylpiperazin-1-yl))-1H-pyrazolo[4,3-d]pyrimidin-7-yl]-4-methylpyridin-2-ylamine dihydrochloride] | 2.94 nM
2 | COCc1nn(CCOCC(F)(F)F)c2c(Nc3cc(C)ccn3)nc(N3CCN[C@H](C)C3)nc12 [Example 253] | 1.2 nM

Where a name gives a salt, the structure may show the parent alone.
